Literature values in patent US20180296559A1, “TREATMENT OF AIRWAY SMOOTH MUSCLE DYSFUNCTION” (priority 2016, published 2018).

System: ALK induced lung cancer
Details: 82 patients, cited from earlier work

## C[C@@H](Oc1cc(-c2cnn(C3CCNCC3)c2)cnc1N)c1c(Cl)ccc(F)c1Cl [crizotinib]
6 months
  progression free survival at 6 months: 72%
8 weeks
  disease control rate at 8 weeks: 87%
Early results
  overall response rate: 57%
